Only a part is listed here, and it is no random draw. Some results for these compounds are left out of this collection, so the calls shown say nothing about other tests. Active and inactive are the calls of the source.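 Rule for the calls: active = activation above the mean across all tested compounds plus 3 SD, cutoff set per campaign (cut at about 5.5% in these data); inactive = the rest.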
Test: Hsp70 transcriptional activators, primary screen, cell-based, HeLa, Hsp70 promoter luciferase, luminescence, 10 µM (AID 1203);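 note: 100% = MG132 at 30 µM as the positive control and 0% = DMSO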
Details: HeLa Hsp70 promoter luciferase reporter, at 10 µM, active compounds read high, scaled: vehicle 0, proteasome-inhibitor control 100%

SMILES | activation
O=C(OC1CN2CCC1CC2)C(CO)(c1ccccc1)c1ccccc1 (centres undefined) | inactive: -0.05%
CN(C)c1cccc(C(=O)NCC2(N(C)C)CCCCC2)c1 | inactive: 0.05%
COc1cccc(C(=O)NCC2(N3CCCCC3)CCCCC2)c1 | inactive: -0.14%
CN(C)C1CCCC1OC(=O)C(O)(c1ccccc1)c1ccccc1 (centres undefined) | inactive: 0.29%
Cc1ccccc1C(=O)NCC1(N2CCCCC2)CCCCC1 | inactive: -0.35%
CCN1CCCC(OC(=O)C2(O)c3ccccc3C=Cc3ccccc32)C1 (centres undefined) | inactive: -0.28%
C=CCN1CCN(CCOC(=O)C(O)(c2ccccc2)c2ccccc2)CC1 | inactive: -0.29%
O=C(NCC1(N2CCCCC2)CCCCC1)c1cc([N+](=O)[O-])ccc1Cl | inactive: -0.3%
CC(C)N1C(=O)CC2(CCN(CCOC(=O)C(O)(c3ccccc3)c3ccccc3)CC2)C1=O | inactive: -0.17%
